Results reported in article PMC11944621, “Synthesis, Molecular Simulation, DFT, and Kinetic Study of Imidazotriazole-Based Thiazolidinone as Dual Inhibitor of Acetylcholinesterase and Butyrylcholinesterase Enzymes” (Pharmaceuticals, 2025).

By UniProt entry, the sequences of proteins in these tests, tags left out. Residues count along the entry.
UniProt P06276, 29-602 limits assumed: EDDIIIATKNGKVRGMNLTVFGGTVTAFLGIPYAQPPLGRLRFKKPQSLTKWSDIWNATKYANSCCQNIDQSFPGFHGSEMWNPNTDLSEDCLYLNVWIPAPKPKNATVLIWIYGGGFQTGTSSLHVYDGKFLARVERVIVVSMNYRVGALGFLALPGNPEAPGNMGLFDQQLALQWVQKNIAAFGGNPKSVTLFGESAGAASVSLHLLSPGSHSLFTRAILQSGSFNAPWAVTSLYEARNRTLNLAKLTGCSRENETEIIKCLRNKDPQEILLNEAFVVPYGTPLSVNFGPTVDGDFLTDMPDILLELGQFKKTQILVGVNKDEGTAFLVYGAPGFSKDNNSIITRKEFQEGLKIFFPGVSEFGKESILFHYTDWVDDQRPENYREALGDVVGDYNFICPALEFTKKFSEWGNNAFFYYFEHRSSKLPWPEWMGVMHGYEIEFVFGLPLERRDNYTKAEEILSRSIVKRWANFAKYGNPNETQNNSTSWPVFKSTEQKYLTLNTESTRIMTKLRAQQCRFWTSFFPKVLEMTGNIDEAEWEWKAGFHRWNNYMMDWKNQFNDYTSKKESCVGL
UniProt P22303, 32-614 limits assumed: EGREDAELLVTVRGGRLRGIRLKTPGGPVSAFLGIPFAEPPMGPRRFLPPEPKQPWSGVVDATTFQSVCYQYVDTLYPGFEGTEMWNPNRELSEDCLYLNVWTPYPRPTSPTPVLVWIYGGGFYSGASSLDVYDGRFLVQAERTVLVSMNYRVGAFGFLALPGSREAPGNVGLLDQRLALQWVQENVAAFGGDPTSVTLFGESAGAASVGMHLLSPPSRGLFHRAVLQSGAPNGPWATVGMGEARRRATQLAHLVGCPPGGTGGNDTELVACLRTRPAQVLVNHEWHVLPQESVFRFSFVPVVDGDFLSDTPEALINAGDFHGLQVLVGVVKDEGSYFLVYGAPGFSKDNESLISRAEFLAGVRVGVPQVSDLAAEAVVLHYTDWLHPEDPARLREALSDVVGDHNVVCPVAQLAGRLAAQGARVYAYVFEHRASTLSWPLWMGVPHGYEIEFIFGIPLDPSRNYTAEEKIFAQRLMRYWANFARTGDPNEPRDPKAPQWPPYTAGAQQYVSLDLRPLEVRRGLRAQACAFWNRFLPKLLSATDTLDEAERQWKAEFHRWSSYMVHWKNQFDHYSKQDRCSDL

What was measured:
BChE = BChE (Homo sapiens, UniProt P06276); conditions: read-out: BChE IC50 ± SEM
AChE = AChE (Homo sapiens, UniProt P22303); conditions: read-out: AchE IC50 ± SEM

| SMILES | IC50 (BChE) [µM] | IC50 (AChE) [µM] |
| --- | --- | --- |
| COc1cc(-c2nnc3[nH]ccn23)ccc1N1C(=O)CSC1c1cc(F)cc(F)c1 (stereo not shown) | 11.6 | 10.3 |
| COc1cc(-c2nnc3[nH]ccn23)ccc1N1C(=O)CSC1c1ccc(Cl)cc1 (stereo not shown) | 18.1 | 17.4 |
| COc1cc(-c2nnc3[nH]ccn23)ccc1N1C(=O)CSC1c1ccc(F)c(O)c1 (stereo not shown) | 10.9 | 10.4 |
| COc1cc(-c2nnc3[nH]ccn23)ccc1N1C(=O)CSC1c1ccc([N+](=O)[O-])cc1 (stereo not shown) | 22.1 | 21.4 |
| COc1cc(-c2nnc3[nH]ccn23)ccc1N1C(=O)CSC1c1ccc(F)cc1 (stereo not shown) | 13.1 | 12.5 |
| COc1cc(-c2nnc3[nH]ccn23)ccc1N1C(=O)CSC1c1cc(O)cc(F)c1 (stereo not shown) | 10.1 | 9.7 |
| COc1cc(-c2nnc3[nH]ccn23)ccc1N1C(=O)CSC1c1ccc(F)c([N+](=O)[O-])c1 (stereo not shown) | 16.7 | 16.2 |
| COc1cc(-c2nnc3[nH]ccn23)ccc1N1C(=O)CSC1c1ccc(O)cc1 (stereo not shown) | 12.1 | 11.5 |
| COc1cc(-c2nnc3[nH]ccn23)ccc1N1C(=O)CSC1c1ccc(Cl)c(Cl)c1 (stereo not shown) | 18.7 | 18.1 |
| COc1ccc(C2SCC(=O)N2c2ccc(-c3nnc4[nH]ccn34)cc2OC)cc1 (stereo not shown) | 19.9 | 19.2 |
| COc1cc(-c2nnc3[nH]ccn23)ccc1N1C(=O)CSC1c1ccc(Cl)cc1[N+](=O)[O-] (stereo not shown) | 21.3 | 20.2 |
